# Target: E. coli FtsZ (FtsZEc) GTPase (Escherichia coli, UniProt P0A9A6)
# Sequences of proteins named here, by UniProt entry; tags and fusion partners are left off. A change or cut given only in a name is not applied to a line headed by its entry.
# UniProt P0A9A6: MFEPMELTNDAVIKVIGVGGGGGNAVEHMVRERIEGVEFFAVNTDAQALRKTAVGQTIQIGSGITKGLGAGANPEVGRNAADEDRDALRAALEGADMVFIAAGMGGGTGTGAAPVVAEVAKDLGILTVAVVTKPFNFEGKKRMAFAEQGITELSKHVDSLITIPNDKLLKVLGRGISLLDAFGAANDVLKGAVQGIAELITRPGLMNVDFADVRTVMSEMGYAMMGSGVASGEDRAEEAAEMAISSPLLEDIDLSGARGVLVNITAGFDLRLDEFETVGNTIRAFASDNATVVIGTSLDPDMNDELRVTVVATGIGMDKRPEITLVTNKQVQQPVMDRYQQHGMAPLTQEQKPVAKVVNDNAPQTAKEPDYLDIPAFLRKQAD
# Conditions: read-out: IC50 FtsZEc, 5 min preincubation at 30° C., 1 mM GTP, averages from three determinations
# Method: FtsZ was preincubated with varying concentrations of compounds or with 3% DMSO in buffer E for 5 min at 30° C., before adding 1 mM GTP to the reactions. Reaction kinetics were followed by measuring inorganic phosphate released upon GTP hydrolysis. The IC50 values were extrapolated from log dose-response curves and are averages from three independent determinations.
smiles,measurement,value
C=CCOc1c(Br)cc(S(=O)(=O)c2cc(Br)c(O)c(Br)c2)cc1Br [18M-04],IC50,25 µM

# Reference: patent US7575889B2, “Compound combinations for inhibiting cell division and methods for their identification and use” (President and Fellows of Harvard College, priority 2001, dated 2009)
